These are literature values, as cited in patent US6270957A, “Non-Imuunosuppressive cyclosporins and their use in the prevention and treatment of HIV infection” (Wisconsin Alumni Research Foundation, priority 1999, dated 2001).

The conditions of this data set: in vivo; cited from earlier work.

As for `CC(C)CN(C[C@@H](O)[C@H](Cc1ccccc1)NC(=O)O[C@H]1CCOC1)S(=O)(=O)c1ccc(N)cc1` [VS-478], the bioavailability entry is listed as “excellent bioavailability”.
